The term pKi denotes the Ki on a negative log10 scale, so that one unit is a factor of ten. In general, pIC50 refers to the negative decadic logarithm of the IC50, by convention in mol/L.

The chains behind the UniProt entries cited, without tags or fusion partners. Where a name states a change or a piece, a line headed by the entry shows the natural chain unless it says otherwise.
UniProt Q06187: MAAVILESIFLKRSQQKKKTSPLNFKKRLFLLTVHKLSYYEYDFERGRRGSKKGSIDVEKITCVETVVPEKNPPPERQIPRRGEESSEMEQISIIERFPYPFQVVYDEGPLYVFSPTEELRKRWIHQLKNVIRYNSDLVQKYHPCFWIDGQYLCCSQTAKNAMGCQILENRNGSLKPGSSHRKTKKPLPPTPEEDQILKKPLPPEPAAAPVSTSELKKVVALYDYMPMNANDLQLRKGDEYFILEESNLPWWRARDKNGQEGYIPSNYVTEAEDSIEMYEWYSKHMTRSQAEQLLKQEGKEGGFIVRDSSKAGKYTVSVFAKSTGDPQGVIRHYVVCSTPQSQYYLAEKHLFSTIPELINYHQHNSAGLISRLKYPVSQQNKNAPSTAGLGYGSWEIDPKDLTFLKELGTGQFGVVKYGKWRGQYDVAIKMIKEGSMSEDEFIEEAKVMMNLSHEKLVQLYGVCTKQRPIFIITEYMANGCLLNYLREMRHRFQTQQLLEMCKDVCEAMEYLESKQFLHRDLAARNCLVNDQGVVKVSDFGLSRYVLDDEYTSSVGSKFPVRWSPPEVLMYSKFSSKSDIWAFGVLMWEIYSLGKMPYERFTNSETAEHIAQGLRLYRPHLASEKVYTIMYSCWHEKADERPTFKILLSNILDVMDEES

Consider one compound from ChEMBL document CHEMBL4024706 (Eur J Med Chem, 2017).

pIC50, pKi: −log10 of the molar value.

In assay [1] the target is T1, Tyrosine-protein kinase BTK (Homo sapiens, UniProt Q06187). Kind of assay: Reversible inhibition of full length recombinant human N-terminal His tagged […] expressed in baculovirus infected Sf9 insect cells using poly (Glu,Tyr)4:1 as substrate pretreated for 2 to 60 mins followed by substrate addition after 1 hr by ADP-Glo luminescence assay. (In general: ADP-Glo first removes unused ATP, then detects ADP through luciferase.)

Assay [2] concerns the target T1, Tyrosine-protein kinase BTK. In words: Inhibition of full length recombinant human N-terminal His tagged […] expressed in baculovirus infected Sf9 insect cells using poly (Glu,Tyr)4:1 as substrate pretreated for 60 mins followed by substrate addition after 1 hr by ADP-Glo luminescence assay.

As to `C=CC(=O)Nc1cccc(Nc2nc(Nc3ccc(OCCOC)cc3)ncc2F)c1` [SPEBRUTINIB], the pKi in assay [1] was 7.68. Also, the negative-log IC50 (pIC50) in assay [2] is 8.05.
